Values of other authors as cited in US20070286875A1 (Morton Grove Pharmaceuticals, Inc., priority 2006, published 2007).

Clc1ccc2c(c1)CCc1cccnc1C2=C1CCNCC1
effect of food on Tmax (food prior to loratadine rapidly-disintegrating tablets): may be delayed | bioavailability administered without water (without water): not different
